Experimental data reported in patent US7132554B2, “Therapeutic synergy of anti-cancer compounds” (Bristol-Myers Squibb Company, priority 2004, dated 2006).

Key:
[1] = system: Human L2987 lung carcinoma xenografts; test: Antitumor testing versus s.c. L2987 lung carcinoma xenografts in nude mice; format: in vivo; conditions: pilot study, q3dx4 from Day 22, cetuximab 1 mg/mouse i.p.
Procedure: (§1) Compounds. The oral taxane (Ia) was synthesized by Bristol-Myers Squibb (BMS) chemists. The compound was dissolved initially in equal portions of Cremophor EL and ethanol, followed by aqueous dilution to yield final ethanol and Cremophor EL concentrations of 10%.
(§2) Animals. Athymic (“nude”) mice, 5–6 weeks of age, purchased from Harlan Sprague Dawley (Indianapolis, Ind.), were quarantined for ˜2 weeks before their use for tumor propagation and drug efficacy testing. They were fed food and water ad libitum. All studies involving these animals were conducted in accordance with NIH (Bethesda, Md.) and Bristol Myers-Squibb animal care and use guidelines.
Tumors. Human L2987 lung and GEO colon carcinomas were maintained in nude mice by serial s.c. passage. All efficacy testing involved tumors implanted s.c. in nude mice.
Antitumor Testing. A detailed description of the methods used to assess antitumor effects has been provided previously in Rose, W. C., Fairchild, C., and Lee, F. Y. F. Preclinical antitumor activity of two novel taxanes. Cancer Chemother. Pharmacol. 47: 97–105, 2001. […]
(§3) Definitions of MTD and OD have been published previously in the above-noted article. […] Cured mice are defined as those whose tumors are ≦35 mg when assessed 10 tumor volume doubling times (based on control tumor growth between 500 mg and 1 g) post-termination of treatment. […]

[2] = system: Human GEO colon carcinoma xenografts; test: Antitumor testing versus s.c. GEO colon carcinoma xenografts in nude mice; format: in vivo; conditions: q3dx6 from Day 11, cetuximab 1 mg/mouse i.p.
Procedure: as §1, §2
Tumors. Human L2987 lung and GEO colon carcinomas were maintained in nude mice by serial s.c. passage. All efficacy testing involved tumors implanted s.c. in nude mice. […]
Antitumor Testing. […] Briefly, therapeutic results are presented in terms of either cures and/or primary tumor growth inhibition determined by calculating the relative median times for drug-treated (T) and control (C) groups of mice to grow tumors of 1 g target size, and expressed as T-C values (in days). […]
as §3

[3] = Tolerability (body weight change, deaths, MTD) in nude mice bearing GEO tumors; format: in vivo; conditions: q3dx6 from Day 11; cetuximab 1 mg/mouse i.p.
Procedure: as §1, §2
Definitions of MTD and OD have been published previously in the above-noted article. Therapeutic results were reported at the OD, i.e., that yielding the best effect without exceeding the MTD. Therapeutic synergy represents a therapeutic effect achieved with a tolerated regimen of a combination treatment that exceeds the optimal effect achieved at any tolerated dose of monotherapy associated with the same drugs used in the combination. Cured mice are defined as those whose tumors are ≦35 mg when assessed 10 tumor volume doubling times (based on control tumor growth between 500 mg and 1 g) post-termination of treatment. […]

[4] = system: Human L2987 lung carcinoma xenografts; conditions: previously described; cited from earlier work
[5] = system: Human GEO colon carcinoma xenografts; conditions: known from earlier work; cited from earlier work

Q: Which “LCK (log cell kill)” value [1] does the source give for cetuximab [reference compound] here?
A: Its value is 0.6.

Q: What about the T-C ([1]; tumor target 1.0 g) of the same substance?
A: The T-C was 14.3 days.

Q: What about the “LCK (log cell kill)” value [2] of the same substance?
A: The value was 0.7.

Q: What about the T-C ([2]; tumor target 1.0 g) of the same substance?
A: The T-C was 10.0 days.

Q: What about the “Average body weight change” value [3] of the same substance?
A: Its value is “no body weight loss”.

Q: What about the “Antitumor activity described for L2987” value [4] of the same substance?
A: The value was “borderline levels of antitumor activity”.

Q: What about the “Responsiveness of the GEO tumor model” value [5] of the same substance?
A: Its value is “responsive”.
